Assays:
[1] = biological target: T1, Cyclin-dependent kinase 9 (Homo sapiens, UniProt P50750); experiment: Inhibition of CDK9 in human MV4-11 cells assessed as induction of caspase-3/7 activation measured after 6 hrs followed by Caspase-glo reagent based assay; type: cell-based
CDK9/cyclin T1 = CDK9/cyclin T1 (Homo sapiens, UniProt P50750); experiment: Inhibition of recombinant full length human N-terminal GST-fused CDK9 (1 to 372 residues)/His-tagged CyclinT1 (1 to 726 residues) expressed in baculovirus infected insect cells using FITC-X-GSRTPMY-NH2 as substrate preincubated for 10 mins followed by MgCl2 addition and measured after 90 mins in presence of 5 mM ATP by mobility shift assay
[2] = biological target: T1, Cyclin-dependent kinase 9; experiment: Inhibition of CDK9 in human MCF7 cells assessed as reduction in RNA Polymerase 2 CTD phosphorylation at Ser2 residues measured after 6 hrs by immunofluorescence assay; type: cell-based

Sequences of proteins named here, by UniProt entry; tags and fusion partners are left off.
UniProt P50750, whole entry: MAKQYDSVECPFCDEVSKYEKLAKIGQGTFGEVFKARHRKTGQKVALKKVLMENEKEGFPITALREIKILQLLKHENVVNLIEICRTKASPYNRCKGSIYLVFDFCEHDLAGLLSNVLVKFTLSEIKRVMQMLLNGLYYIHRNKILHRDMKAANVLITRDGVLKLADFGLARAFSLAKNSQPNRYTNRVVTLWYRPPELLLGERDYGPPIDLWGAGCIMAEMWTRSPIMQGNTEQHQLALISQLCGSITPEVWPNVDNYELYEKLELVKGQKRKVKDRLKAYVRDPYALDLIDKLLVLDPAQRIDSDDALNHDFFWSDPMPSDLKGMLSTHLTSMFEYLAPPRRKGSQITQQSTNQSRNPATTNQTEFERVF

EC50 [1]: 220 nM
IC50 (CDK9/cyclin T1): 29 nM
IC50 [2]: 130 nM
SMILES: COc1cc(F)ccc1-c1ccnc(NC(=O)[C@H]2CCC[C@@H](NC(C)=O)C2)c1

Reference: ChEMBL document CHEMBL4673352, “Discovery of AZD4573, a Potent and Selective Inhibitor of CDK9 That Enables Short Duration of Target Engagement for the Treatment of Hematological Malignancies” (J Med Chem, 2020)
